{"source": "PubChem BioAssay AID720519", "about": "(National Center for Advancing Translational Sciences (NCATS), 2013)", "assay": "qHTS for Inhibitors of Cell Surface uPA Generation: Confirmatory Assay for Cherry-picked Compounds; note: 0% is about no effect", "details": "cell surface uPA activity generation, qHTS confirmation; at 115 µM (top of the series)", "source_text": "The overall objective of this project is to perform a quantitative high throughput screen (qHTS) to identify novel compounds that inhibit the generation of cell surface urokinase activity. The urokinase plasminogen activator (uPA) is one of the two primary endogenous systems that mediate plasminogen activation into plasmin. Members of this system, including uPA and its receptor (uPAR), are overexpressed in several malignant tumors. This system plays a major role in adhesion, migration, invasion and metastasis of cancer cells. Small molecule inhibitors of the uPA system will serve as probes to understand the molecular mechanisms of the uPA cascade and better understanding the micro-environmental circumstances that facilitate the activation of plasminogen by uPA, and finally may provide novel candidate agents for anticancer drug therapy.\n[…] Activation of cell viability (increase in luminescence signal) due to inhibition of the cell surface uPA generation is the desired outcome of this assay. […]\nCultured RAW 264.7 were dispensed into 1536-well clear bottom, white walled tissue culture plates at a density of 4000 cells/well and were incubated overnight (12-16 h) at 37 C in a 5% CO2 incubator. […] Three microliter of PerkinElmer ATPlite was then added to each well and luminescence was detected using the PerkinElmer ViewLux plate reader for a 5 sec exposure.", "note": "The list shows a part of the results, in another mix than the full data. Inconclusive results are not listed. The source made the active and inactive calls. Calls come from the whole dose curve; as a rule, active = well fitted activation curve with a large enough effect; inconclusive = small, poorly fitted or top-dose-only effect; inactive = flat fitted curve, though single readings scatter."}
{"compound": "CCN(CC)CCCOC(=O)C(O)(c1ccccc1)c1ccccc1", "values": [{"measurement": "inhibition", "value": "inactive: 6.02%"}]}
